Assay results published in BindingDB's records for 12904075.
This is a selection: effects in other tests are not listed, and their absence says nothing.

The chains behind the UniProt entries cited, without tags or fusion partners. Residues count along the entry.
UniProt P10696, 20-503 limits assumed: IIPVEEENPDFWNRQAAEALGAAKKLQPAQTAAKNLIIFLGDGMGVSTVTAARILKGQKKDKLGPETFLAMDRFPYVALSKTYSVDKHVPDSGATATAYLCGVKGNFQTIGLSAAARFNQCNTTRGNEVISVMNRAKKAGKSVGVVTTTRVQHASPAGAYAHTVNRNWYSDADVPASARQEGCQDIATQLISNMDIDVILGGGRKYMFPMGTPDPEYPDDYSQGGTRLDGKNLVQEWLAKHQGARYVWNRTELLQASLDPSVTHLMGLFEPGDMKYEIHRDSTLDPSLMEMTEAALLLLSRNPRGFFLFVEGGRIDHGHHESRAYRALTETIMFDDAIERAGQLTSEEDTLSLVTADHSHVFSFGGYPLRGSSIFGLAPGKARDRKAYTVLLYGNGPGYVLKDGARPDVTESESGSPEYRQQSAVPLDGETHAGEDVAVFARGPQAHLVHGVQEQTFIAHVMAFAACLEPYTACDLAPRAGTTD
UniProt P03772, whole entry: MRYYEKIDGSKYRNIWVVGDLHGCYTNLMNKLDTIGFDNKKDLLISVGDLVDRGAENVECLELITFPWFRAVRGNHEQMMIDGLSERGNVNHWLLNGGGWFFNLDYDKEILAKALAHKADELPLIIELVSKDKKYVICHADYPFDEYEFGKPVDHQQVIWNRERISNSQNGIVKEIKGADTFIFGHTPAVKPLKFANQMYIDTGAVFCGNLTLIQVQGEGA

Assays:
[1] = molecular target: Alkaline phosphatase, germ cell type (Homo sapiens, UniProt P10696); assay: ASSAY_NAME: ChEMBL_157081 (CHEMBL765525) DESCRIPTION: Inhibition of Human Placental alkaline Phosphatase (PLAP)
[2] = molecular target: Serine/threonine-protein phosphatase (Lambdavirus lambda, UniProt P03772); assay: ASSAY_NAME: ChEMBL_96757 (CHEMBL705380) DESCRIPTION: Inhibitory activity against Serine/Threonine Protein Phosphatase (Lambda protein phosphatase)

SMILES	Ki [1]	Ki [2]
OP(O)(=S)CSc1ccccc1	460 µM	470 µM
CCCCP(O)(O)=S	600 µM	20000 µM
CSCP(O)(O)=S	40 µM	1200 µM
OP(O)(=S)Cc1ccccc1	200 µM	570 µM
